{"source": "patent US12171806B2", "about": "“Therapeutic regimens and methods for lowering blood glucose and/or body weight using GLP-1R and GCGR balanced agonists” (priority 2021, dated 2024)", "experiment": "Phase 1 MAD study of ALT-801: adverse events (TEAEs), safety overview", "conditions": "M3 2.4 mg ALT-801 (N = 11)"}
{"smiles": "CC[C@H](C)[C@H](NC(=O)[C@H](Cc1ccccc1)NC(=O)[C@H](CCC(=O)O)NC(=O)[C@@H]1CCCCNC(=O)CC[C@H](NC(=O)[C@H](CC(=O)O)NC(=O)[C@H](CC(C)C)NC(=O)[C@H](Cc2ccc(O)cc2)NC(=O)[C@H](CCCCN)NC(=O)[C@H](CO)NC(=O)[C@H](Cc2ccc(O)cc2)NC(=O)[C@H](CC(=O)O)NC(=O)[C@H](CO)NC(=O)[C@@H](NC(=O)[C@H](Cc2ccccc2)NC(=O)[C@@H](NC(=O)CNC(=O)[C@H](CCC(N)=O)NC(=O)C(C)(C)NC(=O)[C@@H](N)Cc2c[nH]cn2)[C@@H](C)O)[C@@H](C)O)C(=O)N[C@@H](CCCCNC(=O)[C@H]2O[C@@H](OCCCCCCCCCCCCCCCCCC(=O)O)[C@H](O)[C@@H](O)[C@@H]2O)C(=O)N[C@@H](C)C(=O)N[C@@H](C)C(=O)N1)C(=O)N[C@@H](CCC(N)=O)C(=O)N[C@@H](Cc1c[nH]c2ccccc12)C(=O)N[C@@H](CC(C)C)C(=O)N[C@@H](CC(C)C)C(=O)N[C@@H](CCC(N)=O)C(=O)N[C@H](C(N)=O)[C@@H](C)O", "note": "[ALT-801, pemvidutide]", "values": [{"measurement": "TEAE Cough, maximum severity Severe, subjects n", "value": 0}, {"measurement": "TEAE Dermatitis contact, maximum severity Mild, subjects %", "value": "(27.3%)"}, {"measurement": "TEAE Dermatitis contact, maximum severity Mild, subjects n", "value": 3}, {"measurement": "TEAE Dermatitis contact, maximum severity Moderate, subjects %", "value": "(0.0%)"}, {"measurement": "TEAE Dermatitis contact, maximum severity Moderate, subjects n", "value": 0}, {"measurement": "TEAE Dermatitis contact, maximum severity PLT, subjects %", "value": "(0.0%)"}, {"measurement": "TEAE Dermatitis contact, maximum severity PLT, subjects n", "value": 0}, {"measurement": "TEAE Dermatitis contact, maximum severity Severe, subjects %", "value": "(0.0%)"}, {"measurement": "TEAE Dermatitis contact, maximum severity Severe, subjects n", "value": 0}, {"measurement": "TEAE Eczema, maximum severity Mild, subjects %", "value": "(0.0%)"}, {"measurement": "TEAE Eczema, maximum severity Mild, subjects n", "value": 0}, {"measurement": "TEAE Eczema, maximum severity Moderate, subjects %", "value": "(0.0%)"}, {"measurement": "TEAE Eczema, maximum severity Moderate, subjects n", "value": 0}, {"measurement": "TEAE Eczema, maximum severity PLT, subjects %", "value": "(0.0%)"}, {"measurement": "TEAE Eczema, maximum severity PLT, subjects n", "value": 0}, {"measurement": "TEAE Eczema, maximum severity Severe, subjects %", "value": "(0.0%)"}, {"measurement": "TEAE Eczema, maximum severity Severe, subjects n", "value": 0}, {"measurement": "TEAE Hot flush, maximum severity Mild, subjects %", "value": "(9.1%)"}, {"measurement": "TEAE Hot flush, maximum severity Mild, subjects n", "value": 1}, {"measurement": "TEAE Hot flush, maximum severity Moderate, subjects %", "value": "(0.0%)"}, {"measurement": "TEAE Hot flush, maximum severity Moderate, subjects n", "value": 0}, {"measurement": "TEAE Hot flush, maximum severity PLT, subjects %", "value": "(0.0%)"}, {"measurement": "TEAE Hot flush, maximum severity PLT, subjects n", "value": 0}, {"measurement": "TEAE Hot flush, maximum severity Severe, subjects %", "value": "(0.0%)"}, {"measurement": "TEAE Hot flush, maximum severity Severe, subjects n", "value": 0}, {"measurement": "TEAE Menorrhagia, maximum severity PLT, subjects %", "value": "(0.0%)"}, {"measurement": "TEAE Menorrhagia, maximum severity PLT, subjects n", "value": 0}, {"measurement": "TEAE Oropharyngeal pain, maximum severity Mild, subjects %", "value": "(9.1%)"}, {"measurement": "TEAE Oropharyngeal pain, maximum severity Mild, subjects n", "value": 1}, {"measurement": "TEAE Oropharyngeal pain, maximum severity Moderate, subjects %", "value": "(0.0%)"}, {"measurement": "TEAE Oropharyngeal pain, maximum severity Moderate, subjects n", "value": 0}, {"measurement": "TEAE Oropharyngeal pain, maximum severity PLT, subjects %", "value": "(0.0%)"}, {"measurement": "TEAE Oropharyngeal pain, maximum severity PLT, subjects n", "value": 0}, {"measurement": "TEAE Oropharyngeal pain, maximum severity Severe, subjects %", "value": "(0.0%)"}, {"measurement": "TEAE Oropharyngeal pain, maximum severity Severe, subjects n", "value": 0}, {"measurement": "TEAE Papule, maximum severity Mild, subjects %", "value": "(0.0%)"}, {"measurement": "TEAE Papule, maximum severity Mild, subjects n", "value": 0}, {"measurement": "TEAE Papule, maximum severity Moderate, subjects %", "value": "(0.0%)"}, {"measurement": "TEAE Papule, maximum severity Moderate, subjects n", "value": 0}, {"measurement": "TEAE Papule, maximum severity PLT, subjects %", "value": "(0.0%)"}, {"measurement": "TEAE Papule, maximum severity PLT, subjects n", "value": 0}, {"measurement": "TEAE Papule, maximum severity Severe, subjects %", "value": "(0.0%)"}, {"measurement": "TEAE Papule, maximum severity Severe, subjects n", "value": 0}, {"measurement": "TEAE Pruritus, maximum severity Mild, subjects %", "value": "(0.0%)"}, {"measurement": "TEAE Pruritus, maximum severity Mild, subjects n", "value": 0}, {"measurement": "TEAE Pruritus, maximum severity Moderate, subjects %", "value": "(0.0%)"}, {"measurement": "TEAE Pruritus, maximum severity Moderate, subjects n", "value": 0}, {"measurement": "TEAE Pruritus, maximum severity PLT, subjects %", "value": "(0.0%)"}, {"measurement": "TEAE Pruritus, maximum severity PLT, subjects n", "value": 0}, {"measurement": "TEAE Pruritus, maximum severity Severe, subjects %", "value": "(0.0%)"}, {"measurement": "TEAE Pruritus, maximum severity Severe, subjects n", "value": 0}, {"measurement": "TEAE Rash, maximum severity Mild, subjects %", "value": "(0.0%)"}, {"measurement": "TEAE Rash, maximum severity Mild, subjects n", "value": 0}, {"measurement": "TEAE Rash, maximum severity Moderate, subjects %", "value": "(0.0%)"}, {"measurement": "TEAE Rash, maximum severity Moderate, subjects n", "value": 0}, {"measurement": "TEAE Rash, maximum severity PLT, subjects %", "value": "(0.0%)"}, {"measurement": "TEAE Rash, maximum severity PLT, subjects n", "value": 0}, {"measurement": "TEAE Rash, maximum severity Severe, subjects %", "value": "(0.0%)"}, {"measurement": "TEAE Rash, maximum severity Severe, subjects n", "value": 0}, {"measurement": "TEAE Respiratory, thoracic and mediastinal disorders, maximum severity Mild, subjects %", "value": "(18.2%)"}, {"measurement": "TEAE Respiratory, thoracic and mediastinal disorders, maximum severity Mild, subjects n", "value": 2}, {"measurement": "TEAE Respiratory, thoracic and mediastinal disorders, maximum severity Moderate, subjects %", "value": "(0.0%)"}, {"measurement": "TEAE Respiratory, thoracic and mediastinal disorders, maximum severity Moderate, subjects n", "value": 0}, {"measurement": "TEAE Respiratory, thoracic and mediastinal disorders, maximum severity PLT, subjects %", "value": "(0.0%)"}, {"measurement": "TEAE Respiratory, thoracic and mediastinal disorders, maximum severity PLT, subjects n", "value": 0}, {"measurement": "TEAE Respiratory, thoracic and mediastinal disorders, maximum severity Severe, subjects %", "value": "(0.0%)"}, {"measurement": "TEAE Respiratory, thoracic and mediastinal disorders, maximum severity Severe, subjects n", "value": 0}, {"measurement": "TEAE Skin and subcutaneous tissue disorders, maximum severity Mild, subjects %", "value": "(27.3%)"}, {"measurement": "TEAE Skin and subcutaneous tissue disorders, maximum severity Mild, subjects n", "value": 3}, {"measurement": "TEAE Skin and subcutaneous tissue disorders, maximum severity Moderate, subjects %", "value": "(0.0%)"}, {"measurement": "TEAE Skin and subcutaneous tissue disorders, maximum severity Moderate, subjects n", "value": 0}, {"measurement": "TEAE Skin and subcutaneous tissue disorders, maximum severity PLT, subjects %", "value": "(0.0%)"}, {"measurement": "TEAE Skin and subcutaneous tissue disorders, maximum severity PLT, subjects n", "value": 0}, {"measurement": "TEAE Skin and subcutaneous tissue disorders, maximum severity Severe, subjects %", "value": "(0.0%)"}, {"measurement": "TEAE Skin and subcutaneous tissue disorders, maximum severity Severe, subjects n", "value": 0}, {"measurement": "TEAE Skin lesion, maximum severity Mild, subjects %", "value": "(0.0%)"}, {"measurement": "TEAE Skin lesion, maximum severity Mild, subjects n", "value": 0}, {"measurement": "TEAE Skin lesion, maximum severity Moderate, subjects %", "value": "(0.0%)"}, {"measurement": "TEAE Skin lesion, maximum severity Moderate, subjects n", "value": 0}, {"measurement": "TEAE Skin lesion, maximum severity PLT, subjects %", "value": "(0.0%)"}, {"measurement": "TEAE Skin lesion, maximum severity PLT, subjects n", "value": 0}, {"measurement": "TEAE Skin lesion, maximum severity Severe, subjects %", "value": "(0.0%)"}, {"measurement": "TEAE Skin lesion, maximum severity Severe, subjects n", "value": 0}, {"measurement": "TEAE Vascular disorders, maximum severity Mild, subjects %", "value": "(9.1%)"}, {"measurement": "TEAE Vascular disorders, maximum severity Mild, subjects n", "value": 1}, {"measurement": "TEAE Vascular disorders, maximum severity Moderate, subjects %", "value": "(0.0%)"}, {"measurement": "TEAE Vascular disorders, maximum severity Moderate, subjects n", "value": 0}, {"measurement": "TEAE Vascular disorders, maximum severity PLT, subjects n", "value": 0}, {"measurement": "TEAE Vascular disorders, maximum severity Severe, subjects %", "value": "(0.0%)"}, {"measurement": "TEAE Vascular disorders, maximum severity Severe, subjects n", "value": 0}]}
